Reference: patent publication US11279734B2, “Solution-phase affinity selection of inhibitors from combinatorial peptide libraries” (Massachusetts Institute of Technology, priority 2017, dated 2022)

Chains of the proteins cited; added tags and fusions are not shown. Residues count along the entry.
UniProt Q00987, 25-109, looked up: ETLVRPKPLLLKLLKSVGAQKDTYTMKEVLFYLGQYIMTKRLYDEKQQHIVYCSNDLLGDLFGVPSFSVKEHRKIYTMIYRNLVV

Columns and labels:
[1] = Solubility limit; format: physicochemical
[2] = molecular target: SUMO-25-109 MDM2 (Homo sapiens, UniProt Q00987); format: binding; conditions: biotin labeled peptide immobilized to streptavidin sensors; global fitting of association and dissociation curves
[3] = molecular target: T1, 1-137MDMX (Homo sapiens, UniProt O15151); format: binding; conditions: biotin labeled peptide immobilized to streptavidin sensors; global fitting
T1 construct: Human ^1-137MDMX was purchased from Abcam (ab167947); purchased Abcam ab167947
T1 sequence (O15151 1-137): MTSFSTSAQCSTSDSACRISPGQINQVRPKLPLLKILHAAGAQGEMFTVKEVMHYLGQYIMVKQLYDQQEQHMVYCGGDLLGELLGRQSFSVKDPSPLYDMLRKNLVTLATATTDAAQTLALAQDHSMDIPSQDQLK

| Sequence | solubility limit [1] | Kd [2] | Kd [3] |
| --- | --- | --- | --- |
| LTFEHYWAQLTSK [peptide 6] | ~10000 µg/mL |  |  |
| LTFEHYWAQLTSK [peptide 6a, reference compound] |  | 47 ± 2 nM | 83 ± 4 nM |
